# Laboratory results as given in patent US20240166691A1, “PRODRUGS AND COMPOSITIONS FOR OPHTHALMOLOGY APPLICATIONS” (priority 2022, published 2024).
# Settings: lyophilized sample stored at 25° C., after 21 days
substance,measurement,value
Cyclosporine-A-(N-benzyl-glycine)-linker-NH-PEG-2K TFA-salt,degradation of lyophilized sample,no degradation
